Results published in patent US9908886B2 (Agency for Science, Technology and Research, priority 2012, dated 2018).

Amino acid sequences for entries named in this document (tags omitted). Residues count along the entry.
UniProt Q9HBH9, 84-388: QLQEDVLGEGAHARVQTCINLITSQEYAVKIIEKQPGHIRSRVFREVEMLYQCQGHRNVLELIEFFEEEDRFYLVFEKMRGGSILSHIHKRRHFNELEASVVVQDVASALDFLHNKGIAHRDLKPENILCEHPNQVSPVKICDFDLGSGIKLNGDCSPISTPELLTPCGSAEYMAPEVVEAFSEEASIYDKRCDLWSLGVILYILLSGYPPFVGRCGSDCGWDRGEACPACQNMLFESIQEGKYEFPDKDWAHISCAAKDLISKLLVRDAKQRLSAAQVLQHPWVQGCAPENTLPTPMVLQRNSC

How the values were obtained:
MNK1 = MNK1 (Homo sapiens, UniProt Q9BUB5); test: In vitro MNK kinase assay (Caliper LabChip mobility shift); format: biochemical; conditions: enzymatic, 1.2 mM ATP
MNK2 = MNK2 (Homo sapiens (Human), UniProt Q9HBH9); test: as above; format: biochemical; conditions: enzymatic, 250 μM ATP

| Compound | IC50 (MNK1) [µM] | IC50 (MNK2) [µM] |
| --- | --- | --- |
| CN1CCN(C(=O)c2ccc(-c3cn4c(-c5ccc(C#N)cc5)cnc4cn3)cc2)CC1 [Example 6, 4-(6-(4-(4-methylpinerazine-1-carbonyl)phenyl)imidazo[1,2-a]pyrazin-3-yl)benzonitrile] | < 1 | < 1 |
| CN1CCN(C(=O)c2ccc(-c3ccc4ncc(-c5ccc(O)cc5)n4c3)cc2)CC1 [Example 175, (4-(3-(4-hydroxyphenyl)imidazo[1,2-a]pyridin-6-yl)phenyl)(4-methylpiperazin-1-yl)methanone] | < 1 | – |
